Many of the other results were omitted from the sample, so hits are more common in it than they were.
GIV Gai3 FP: blocks GIV peptide binding to rat Galpha-i3; P08753; Galpha-i3/FITC-GIV peptide fluorescence polarization, 90 min; stronger effect = lower value; scaled: aluminum fluoride 0%, vehicle 100%; percent of control (FP), % (no concentration beside the values); 210,000 tested, 0.42% active; AID 1224905;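 active = replicate mean at 85% of control or lower, very high polarization wells dropped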;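 also: wells of about 15 µL received 100 nL stock; the first replicate is given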
GIV Gai FP conf: inhibitors of GIV peptide binding to Galpha-i3, confirmation, biochemical, fluorescence polarization, FITC-GIV peptide, rat Galphai3 | fluorescence polarization, mP at 100 µM | AID 1259350, 2017 | 38% of 580 active | shares compounds with GIV Gai3 FP | stronger effect = lower value;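 active means inhibition score of 15 or more, meaning 100 minus mean polarization as percent of control over three replicates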
GIV Gai AS conf: inhibitors of GIV binding to Galpha-i3, confirmation, orthogonal assay for GIV-Galpha-i inhibitor project, biochemical, AlphaScreen, His-GIV, GST-Galphai3; AlphaScreen counts at 100 µM; 39% of 580 active; purified proteins, 90 min; stronger effect = lower value; shares compounds with GIV Gai3 FP;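 active means inhibition score at or above a set limit, where the score is 100 minus the three-replicate mean percent of control signal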
Active calls of the source: *.

Start of the listing, in advance, 2 compounds:
SMILES | GIV Gai3 FP | others
Cc1cccc(N2CC(O)(c3ccc(OC(F)F)cc3)[N+]3=C2CCCC3)c1 (stereo unspecified) | 110
CCCCC(=O)Nc1nnc(S(=O)(=O)N2CCC(C)CC2)s1 | 106

This part in full (from the top)
SMILES | GIV Gai3 FP | others
Cc1cccc(N2CC(O)(c3ccc(OC(F)F)cc3)[N+]3=C2CCCC3)c1 (stereo unspecified) | 110
CCCCC(=O)Nc1nnc(S(=O)(=O)N2CCC(C)CC2)s1 | 106
COc1ccc(C)cc1NC(=O)CN1N=NC2C(=O)N(c3ccc(Br)cc3)C(=O)C21 (stereo unspecified) | 106
O=C(O)CNC(=O)Cc1ccccc1 | 104
Cc1ccc(C(=O)NC2(O)C(=O)c3ccccc3C2=O)cc1C | 57* | GIV Gai FP conf=45*;GIV Gai AS conf=46487
Cc1nc(C(=O)NC2(O)C(=O)c3ccccc3C2=O)cs1 | 95
O=C(NC1(O)C(=O)c2ccccc2C1=O)c1cnn(-c2ccccc2)c1C(F)(F)F | 87
O=C(NC1(O)C(=O)c2ccccc2C1=O)c1ccccn1 | 74* | GIV Gai FP conf=68;GIV Gai AS conf=36588
CN1C(=O)c2ccccc2Sc2ccc(NC(=O)c3ccc(C(F)(F)F)cc3)cc21 | 102
Cc1ccc(C(=O)O)cc1NC1(c2ccccc2)C(=O)c2ccccc2C1=O | 98
O=C(Cc1ccccc1)NC1(O)C(=O)c2ccccc2C1=O | 61* | GIV Gai FP conf=52*;GIV Gai AS conf=45267
CC(NC(=O)Cc1ccccc1)c1ccccc1 (stereo unspecified) | 100
Cc1ccc(C(=O)c2ccc(C)c(C)c2)cc1C | 98
CSc1ncccc1C(=O)NC1(O)C(=O)c2ccccc2C1=O | 93
O=C(NC1(O)C(=O)c2ccccc2C1=O)c1ccc(C(F)(F)F)cc1 | 56* | GIV Gai FP conf=61;GIV Gai AS conf=32539
CCCn1cnc2cc(NCc3ccc(C)cc3)ccc21 | 98
CCCNC(=O)c1c(C)[nH]c(C(=O)OCC)c1C | 98
CC1CCCCC1NC(=O)c1ccc(CS(=O)(=O)c2cccc(C(F)(F)F)c2)o1 (stereo unspecified) | 103
COc1ccc(-c2nnc3sc(-c4cccnc4)nn23)cc1OC | 102
COC(=O)CNC(=O)NCCc1nc2cccnc2n1-c1ccccc1 | 104
O/N=C/c1c(O)ccc2ccccc12 | 98
Oc1ccc2ccccc2c1C=NCc1ccccc1 | 103
Oc1ccc2ccccc2c1C=Nc1cccn2cc(-c3ccccc3)nc12 | -9.9* | GIV Gai FP conf=9.8*;GIV Gai AS conf=37990
NC(=O)CSc1nnc2c3ccccc3nc(-c3ccccc3)n12 | 104
CCCN1CCN(c2ncc3c(n2)CCNC3)CC1 | 104
CCNC(=O)c1cn2c3c(cccc3c1=O)CC2 | 105
Cc1nc2ccc(N)cc2s1 | 100
Nc1ccc2nsnc2c1 | 46* | GIV Gai FP conf=5.4*;GIV Gai AS conf=3926*
Nc1nnc(-c2ccc3nsnc3c2)o1 | 106
Cc1cc(C)c(S(=O)(=O)NCCn2c(-c3ccncc3)nc3cccnc32)cc1C | 109

Random excerpt: two entries already listed.
SMILES | GIV Gai3 FP | others
O/N=C/c1c(O)ccc2ccccc12 | 98
O=C(NC1(O)C(=O)c2ccccc2C1=O)c1cnn(-c2ccccc2)c1C(F)(F)F | 87

Other compounds follow:
SMILES | GIV Gai3 FP | others
Cc1ccc(S(=O)(=O)c2c(C)cc(C)n(CC(=O)Nc3oncc3-c3ccccc3)c2=O)cc1 | 96
CCN(CC)c1ccc(C2Nc3cccc4cccc(c34)N2)c(O)c1 | 120
CCN(CC)c1ccc2c(c1)CCCN2 | 53* | GIV Gai FP conf=63;GIV Gai AS conf=11170*
CCN(CC)c1ccc(NS(=O)(=O)c2ccc(F)cc2)cc1 | 94
Cc1ccc(C)c(-c2nc3ccccc3nc2-c2ccccc2)c1 | 113
O=C(NCc1c(-c2ccc(F)cc2)nc2n1CCS2)c1ccccc1Br | 94
CCOC(=O)C1=C(C)NC(SCC(=O)c2ccc(Cl)cc2)=C(C#N)C1CC(C)C (stereo unspecified) | 100
COc1cccc(C2=Nc3cc(C)c(C)cc3NC(=S)C2)c1 | 100
CCOC(=O)Cc1ccc(NC(=O)N2CCc3c(sc4c3CCCC4)C2c2ccccc2)cc1 (stereo unspecified) | 101
COc1cccc(NCc2cccc3c2CN(CC2CCCO2)C3)c1 (stereo unspecified) | 112
CCc1c(C)c(C#N)c2nc3ccccc3n2c1Nc1ccc(F)cc1 | 103
CCc1c(C)c(C#N)c2nc3ccccc3n2c1-n1nc(C)cc1C | 86 | GIV Gai FP conf=75;GIV Gai AS conf=35204
CCc1c(C)c(C#N)c2nc3ccccc3n2c1N1CCCC1 | 101
c1csc(-c2nc3nonc3c3nc4ccccc4n23)c1 | 115
Nc1c(C(=O)Nc2ccc(Br)cc2)sc2nc3c(cc12)CCCCC3 | 100
COc1ccccc1NC(=O)c1sc2nc3c(cc2c1N)CCCCCC3 | 104
Nc1c(C(=O)Nc2cccc(Cl)c2)sc2nc3c(cc12)CN(Cc1ccccc1)CC3 | 79* | GIV Gai FP conf=81;GIV Gai AS conf=31968
COc1ccc(NC(=O)c2sc3nc4c(cc3c2N)CCCCCC4)cc1OC | 80* | GIV Gai FP conf=81;GIV Gai AS conf=34749
Cc1cccc(NC(=O)c2sc3nc4c(cc3c2N)CN(Cc2ccccc2)CC4)c1 | 100
Cc1ccc(NC(=O)c2sc3nc4c(cc3c2N)CN(Cc2ccccc2)CC4)cc1 | 111
O=C(NC1CCCCC1)c1sc2ccccc2c1Cl | 105
O=C(Nc1cccc2nsnc12)c1nc2ccccc2nc1N1CCOCC1 | 28* | GIV Gai FP conf=69;GIV Gai AS conf=40962
O=C(Nc1cccc2nsnc12)c1nc2ccccc2nc1N1CCCC1 | 100
O=C(Nc1cccc2c1CCCC2)c1nc2ccccc2nc1N1CCCC1 | 106
COc1ccc(N2CCN(Cc3nc4c(c(=O)n(C)c(=O)n4C)n3Cc3ccccc3)CC2)cc1 | 101
CC(C)=NNC(=O)Cc1c[nH]c2cccc(OCC(O)CNC(C)(C)C)c12 (stereo unspecified) | 90 | GIV Gai FP conf=76;GIV Gai AS conf=32755
COc1ccc(OCC(O)CNC(C)(C)C)cc1 (stereo unspecified) | 98
CC(C)NC[C@H](O)COc1cccc2[nH]ccc12 | 108
CCn1nc(SCC(=O)NCc2ccccc2)n2c(=O)c3c(nc12)-c1ccccc1CC3(C)C | 93
Cc1ccc(C)c(N(CC(=O)Nc2ccccc2)S(C)(=O)=O)c1 | 100

Sorted by length of the SMILES (smallest number first): 4 of the compounds above.
SMILES | GIV Gai3 FP | others
O=C(NC1CCCCC1)c1sc2ccccc2c1Cl | 105
CC(C)NC[C@H](O)COc1cccc2[nH]ccc12 | 108
COc1ccccc1NC(=O)c1sc2nc3c(cc2c1N)CCCCCC3 | 104
Nc1c(C(=O)Nc2cccc(Cl)c2)sc2nc3c(cc12)CN(Cc1ccccc1)CC3 | 79* | GIV Gai FP conf=81;GIV Gai AS conf=31968

Other results follow:
SMILES | GIV Gai3 FP | others
O=C(NCCC1=CCCCC1)c1cc(-c2cccnc2)nc2ccccc12 | 107
CCC(=O)N1c2ccc(S(=O)(=O)N3CCCCC3)cc2CC1C(=O)NCCCOC (stereo unspecified) | 104
CC(=O)Nc1cccnc1-c1ccc(C(=O)Nc2ccc(Br)cc2)cc1 | 113
O=C1OC(c2ccc(Cl)c([N+](=O)[O-])c2)=N/C1=C\c1cc(Br)cs1 | 110
CC(=O)Nc1ccc(C2=N/C(=C/c3cc(Br)cs3)C(=O)O2)cc1 | 93 | GIV Gai FP conf=68;GIV Gai AS conf=42375
COc1cc(/C=C2/N=C(c3ccc(C)cc3)OC2=O)cc(Br)c1OC(C)=O | 112
CCN(CC)CCNC(=O)CN(C)c1nn2c(NC3CCCC3)c(-c3ccc(OC)cc3)nc2s1 | 104
O=C(CN1C(=O)c2ccccc2C1=O)Nc1ccccc1 | 97
O=C(O)CN1C(=O)c2ccc(Br)cc2C1=O | 96
Nc1cccc2c1C(=O)N(CC(=O)O)C2=O | 81* | GIV Gai FP conf=72;GIV Gai AS conf=47777
CC(C)(CN=C1NS(=O)(=O)c2ccccc21)CNC(=O)c1ccccc1Br | 105
CCN(CC)CCCC(C)Nc1c2ccc(Cl)cc2nc2ccc(OC)cc12 (stereo unspecified) | 44* | GIV Gai FP conf=41*;GIV Gai AS conf=32214
CCN(CC)CCSc1nc2ccc(OC)cc2[nH]1 | 100
CCN(CC)CCCNc1nc(-c2ccc(Cl)cc2)nc2ccccc12 | 101
